For the experiment, the target named is MCL-1 (Homo sapiens (Human), UniProt Q07820, K194A/K197A/R201A). Nature of the experiment: Protein-protein interaction assay MCL-1/Noxa BH3 peptide (MCL-1 assay, TR-FRET). The note with it: read-out: MCL-1 Assay [M] (median) IC50, MBP-MCL-1 / Noxa BH3 peptide. How it is done: Protein-Protein Interaction Assay: MCL-1/Noxa BH3 Peptide (MCL-1 Assay)
The dose-dependent inhibition by the compounds described in this invention of the interaction between MCL-1 and the BH3 domain of Noxa (both human) was determined using a steady state binding competition assay with time-resolved fluorescence energy transfer (TR-FRET) readout. For that purpose MCL-1 (amino acids 173-329, N-terminal fused to Maltose Binding Protein (MBP) SEQ ID 1) and a synthetic Noxa BH3-derived peptide of sequence Biotin-PEG2-PEG2-PAELEVE-Nva-ATQLRRFGDKLNFRQKLL-amide (SEQ ID 2) served as protein receptor and tracer ligand respectively. The MBP-MCL-1 was purchased from Beryllium (Bedford, Mass., USA). The expression and purification of this protein construct has been described elsewhere (DOI:10.1371/journal.pone.0125010). The Noxa BH3-derived peptide can be obtained from e.g. Biosyntan (Berlin, Germany).
In the assay 11 different concentrations of each compound (0.1 nM, 0.33 nM, 1.1 nM, 3.8 nM, 13 nM, 44 nM, 0.15 μM, 0.51 μM, 1.7 μM, 5.9 μM and 20 μM) were typically measured as duplicates in the same microtiter plate. […]
The mixture was incubated in the dark for one hour at 22° C. and then overnight at 4° C. The formation of MCL-1/Noxa complexes was determined by measuring the resonance energy transfer of the anti-MBP-Eu-cryptate antibody to the streptavidin-XL665 present in the reaction. […]
On the technique in general: Time-resolved FRET reads energy transfer from a long-lived donor to a nearby acceptor.

One molecule from patent US11401278B2, “Macrocyclic indole derivatives” (The Broad Institute, Inc., priority 2017, dated 2022) can be followed below.

For `CCc1c2c(nn1C)CNS(=O)(=O)CCCn1c(C(=O)O)c(CCCOc3cccc4cc(F)ccc34)c3ccc(Cl)c-2c31`, the IC50 came to 1.9e-09 M.
